This note sets out measurements from PubChem BioAssay AID2097 (Broad Institute, 2009).

Sequences of proteins named here, by UniProt entry; tags and fusion partners are left off. A change or cut given only in a name is not applied to a line headed by its entry.
UniProt P49841: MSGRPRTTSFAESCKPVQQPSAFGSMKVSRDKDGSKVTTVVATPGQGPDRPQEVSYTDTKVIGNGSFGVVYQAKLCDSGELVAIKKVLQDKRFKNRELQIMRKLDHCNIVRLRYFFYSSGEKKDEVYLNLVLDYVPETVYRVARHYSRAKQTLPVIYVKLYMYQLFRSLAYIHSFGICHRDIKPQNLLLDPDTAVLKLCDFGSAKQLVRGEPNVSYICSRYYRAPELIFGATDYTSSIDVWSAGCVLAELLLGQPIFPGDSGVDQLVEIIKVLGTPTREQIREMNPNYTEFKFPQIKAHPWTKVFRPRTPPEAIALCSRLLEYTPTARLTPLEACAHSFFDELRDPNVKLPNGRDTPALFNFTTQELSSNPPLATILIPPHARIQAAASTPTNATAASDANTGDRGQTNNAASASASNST

The list shows a part of the results, in another mix than the full data. Activity calls are given as the source filed them.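 The calls were made as follows: active = more than half of replicate wells score below -50%, meaning over 50% inhibition versus plate controls; inconclusive = some replicates but at most half score below -50%; inactive = no replicate scores below -50%.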

This assay concerns the target Glycogen synthase kinase-3 beta (Homo sapiens) (UniProt P49841). In words: blockers of GSK3B enzyme activity – biochemical, cell-free homogeneous, HTS, primary screen (AID 2097).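 Also: 0% = median DMSO wells and -100% = median GW8510 positive control wells.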 As to conditions: GST-GSK3beta kinase, ADP-Glo luminescence, 60 min; at 10 µM; hits give low values.
`O=[N+]([O-])c1cccc(NC2=NCC(CBr)S2)c1` (stereo unspecified): the activity score (negative = inhibition) is inactive: 0.781%.

For `O=C(O)CNc1ccc([As](=O)(O)O)cc1`, the activity score (negative = inhibition) was inactive: 2.49%.

Take `CC(C)(C)C(=O)NC(Sc1ccncn1)C(Cl)(Cl)Cl` (stereo unspecified): the activity score (negative = inhibition) is inactive: -3.34%.

In the case of `O=[N+]([O-])c1ncn(CCn2ncnc2[N+](=O)[O-])n1`, the activity score (negative = inhibition) is inactive: -1.74%.

Consider `O=C(Nc1cc([As](=O)(O)O)ccc1O)c1ccccc1`, for which the activity score (negative = inhibition) is inactive: 3.51%.

With `CN(C)C(=O)OCCc1n(C)cc[n+]1C`, the activity score (negative = inhibition) was inactive: -28.5%.

Turning to `CC(C)=N/N=C(\N)N[N+](=O)[O-]`, the activity score (negative = inhibition) was inactive: 0.651%.

For `CC1CCN(C(=O)Oc2c(Cl)cc(Cl)c3cccnc23)CC1`, the activity score (negative = inhibition) was inactive: 1.02%.

Regarding `C[N+]1=C2C=CC=CC=C2SC12C([N+](=O)[O-])=CC([N+](=O)[O-])=C[C-]2[N+](=O)[O-]` (stereo unspecified), the activity score (negative = inhibition) was inactive: -2.37%.

On to `Nc1ccc([As](=O)(O)c2ccc(N)cc2)cc1`, for which the activity score (negative = inhibition) was inactive: -0.311%.

Regarding `CCN(/C(=N/P(=O)(N1CCOCC1)N1CCOCC1)N1CCOCC1)c1ccc(OC)cc1`, the activity score (negative = inhibition) is inactive: -6.82%.

With `O=[N+]([O-])c1cccc2n[nH]nc12`, the activity score (negative = inhibition) was inactive: 1.61%.

`CC(=O)N1C2C3N(C(C)=O)C1C1N(C(C)=O)C(C(N1C(C)=O)N3C(C)=O)N2C(C)=O`: the activity score (negative = inhibition) was inactive: 2.1%.

Regarding `CCc1nc2c(n1)c1c(non1O)c1c2no[n+]1[O-]`, the activity score (negative = inhibition) was inactive: 2.94%.

Turning to `O=[N+]([O-])c1cc([N+](=O)[O-])c(CCNc2ccccc2)c([N+](=O)[O-])c1`, the activity score (negative = inhibition) was inactive: 4.83%.

Take `Cc1ccc(NP(=O)(Oc2ccccc2)Oc2ccccc2)nc1`: the activity score (negative = inhibition) was inactive: 1.29%.

In the case of `COc1ccc(C2=NCC(CBr)S2)cc1` (stereo unspecified), the activity score (negative = inhibition) was inactive: 1.76%.

Take `CC(C)CC(=O)NC(Sc1ccc(Cl)cc1)C(Cl)(Cl)Cl` (stereo unspecified): the activity score (negative = inhibition) is inactive: -2.71%.

Regarding `Nc1cc(N)c2nonc2c1[N+](=O)[O-]`, the activity score (negative = inhibition) was inactive: 1.23%.

Regarding `Cc1c2non([O-])c-2c(C)[n+](=O)[n+]1[O-]`, the activity score (negative = inhibition) was inactive: 2.76%.

As for `O=C(NC(Sc1ccncn1)C(Cl)(Cl)Cl)c1ccccc1` (stereo unspecified), the activity score (negative = inhibition) is inactive: 1.4%.

Consider `Oc1ccccc1CNc1ccccn1`, for which the activity score (negative = inhibition) was inactive: -0.723%.

Turning to `Cc1ccc(OP(=O)(Nc2nccs2)Oc2ccc(C)cc2)cc1`, the activity score (negative = inhibition) was inactive: 3.88%.

`COc1ccccc1OP(=O)(Nc1ccc(C)cn1)Oc1ccccc1OC`: the activity score (negative = inhibition) was inactive: 2.13%.

Turning to `Clc1ccc(Cl)c(NC2=NCC(CBr)S2)c1` (stereo unspecified), the activity score (negative = inhibition) was inactive: -1%.

For the compound `CN1CCCC(OC(=O)C(c2ccccc2)c2ccccc2)C1` (stereo unspecified), the activity score (negative = inhibition) was inactive: 1.48%.

Regarding `NC(=O)c1cc([N+](=O)[O-])cc([N+](=O)[O-])c1N`, the activity score (negative = inhibition) is inactive: -5.75%.

In the case of `Cc1ccc(N/C(=N/P(=O)(N2CCOCC2)N2CCOCC2)N2CCOCC2)cc1`, the activity score (negative = inhibition) was inactive: 4.14%.

Consider `CCN(N=Nc1nonc1N)c1nonc1N`, for which the activity score (negative = inhibition) is inactive: -18.4%.

For `Nc1cccc2ccc([As](=O)(O)O)cc12`, the activity score (negative = inhibition) was inactive: -0.23%.

Consider `O=[N+]([O-])c1cc([N+](=O)[O-])c(CCN2CCOCC2)c([N+](=O)[O-])c1`, for which the activity score (negative = inhibition) is inactive: 3.27%.

Consider `Cc1ccc(NP(=O)(Oc2ccccc2F)Oc2ccccc2F)nc1`, for which the activity score (negative = inhibition) was inactive: 0.461%.

`CN(C(=O)Cc1ccc(Cl)c(Cl)c1)[C@H]1CCCC[C@@H]1N1CCCC1`: the activity score (negative = inhibition) is inactive: -2.24%.

For `CCOP(=O)(Nc1ccccc1)OCC`, the activity score (negative = inhibition) was inactive: -0.242%.

Turning to `Cc1cc(SC(NC(=O)c2ccc(F)cc2)C(Cl)(Cl)Cl)ncn1` (stereo unspecified), the activity score (negative = inhibition) was inactive: 7.01%.

As for `O=C(O)c1ccccc1[As](=O)(O)O`, the activity score (negative = inhibition) is inactive: -0.46%.

On to `CC(=O)Nc1ccc([As](=O)(O)O)cc1`, for which the activity score (negative = inhibition) is inactive: 0.924%.

`O=P(Nc1nc2ccc(Cl)cc2s1)(c1ccccc1)c1ccccc1`: the activity score (negative = inhibition) is inactive: 0.631%.

As for `CN(C)C(=O)Oc1noc2ccccc12`, the activity score (negative = inhibition) was inactive: -0.418%.

As to `Cc1ccccc1OP(=O)(Nc1ccccn1)Oc1ccccc1C`, the activity score (negative = inhibition) was inactive: 0.801%.

Turning to `CC(=O)NC(SC(=S)N(CC(C)C)CC(C)C)C(Cl)(Cl)Cl` (stereo unspecified), the activity score (negative = inhibition) is inactive: 3.5%.

On to `Cc1ccc(OP(=O)(Nc2ccccn2)Oc2ccc(C)cc2)cc1`, for which the activity score (negative = inhibition) is inactive: -0.99%.

Turning to `COC(=O)c1cc2c(s1)N=C(c1ccccc1)N(C)P2(=O)N1CCOCC1` (stereo unspecified), the activity score (negative = inhibition) is inactive: 0.565%.

On to `CCC(=O)N1C2C3N(C(=O)CC)C1C1N(C(=O)CC)C(C(N1C(=O)CC)N3C(=O)CC)N2C(=O)CC`, for which the activity score (negative = inhibition) is inactive: 4.34%.

`O=C(OC1CN2CCC1CC2)c1ccccc1` (stereo unspecified): the activity score (negative = inhibition) is inactive: 1.55%.

As for `CCNC(=S)/N=C(\N)N[N+](=O)[O-]`, the activity score (negative = inhibition) is inactive: -0.356%.

In the case of `O=C(NC1CCS(=O)(=O)C1)NP(=S)(Oc1ccccc1)Oc1ccccc1` (stereo unspecified), the activity score (negative = inhibition) is inactive: -0.959%.

As for `Cc1ccc(NP(=O)(Oc2cccc(C)c2)Oc2cccc(C)c2)nc1`, the activity score (negative = inhibition) is inactive: 3.84%.

As to `CCOC(=O)NC(Sc1ccccc1)C(Cl)(Cl)Cl` (stereo unspecified), the activity score (negative = inhibition) was inactive: -1.63%.

In the case of `c1ccc(-c2nn[nH]n2)c(-c2nn[nH]n2)c1`, the activity score (negative = inhibition) was inactive: 2.14%.

On to `CC(=O)Nc1ccc(Oc2c([N+](=O)[O-])cc([N+](=O)[O-])cc2[N+](=O)[O-])cc1`, for which the activity score (negative = inhibition) is inactive: 3.91%.
